The values below are quoted from earlier work in patent publication US12484575B2, “Mosquito egg cryopreservation” (Sanaria Inc., priority 2019, dated 2025).

In this data set the test system is An. gambiae embryos. Particulars: used as permeabilization reagents; cited from earlier work.

For butanol, the Toxicity to embryos result is listed as “extremely toxic to the embryos”.
